One compound from PubChem BioAssay AID493234 (Broad Institute, 2011) can be followed below.

The nature of the assay: HRE-luciferase activation in zinc medium, dose response, mechanism study for HIF pathway activator project, cell-based, U2OS, luminescence, dry powder, set 2 (AID 493234). The conditions noted are these: at 38 µM (top of the series). The method in brief:
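Measured by: Steady-Glo luminescence; material: human U2OS osteosarcoma cells stably expressing 3×HRE-driven luciferase reporter; also added: zinc sulfate at 50 µM final; schedule: 24 h pre-growth, 24 h compound treatment; compound dosing: 8 concentrations, 3-fold dilution steps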

Molecules are shown by their SMILES. Only a part is listed here, and it is no random draw. The source made the active and inactive calls.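 How the source made its calls: active means fitted curve rises to an activation of 500 at or below the top valid dose; inactive means the rest, including activity in the falling direction.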

In the case of `O=c1[nH]c2ccccc2n1C1CCN(Cc2ccc(O)c3ncccc23)CC1`, the activation was inactive: -4.88%.
